Here are results for five molecules from ChEMBL document CHEMBL3286196 (J Med Chem, 2014).

Sequences of proteins named here, by UniProt entry; tags and fusion partners are left off. A change or cut given only in a name is not applied to a line headed by its entry. A line that says so, or that is headed by a name, gives the form on record, which may keep a tag or linker. Residues count along the entry.
UniProt Q16881, whole entry: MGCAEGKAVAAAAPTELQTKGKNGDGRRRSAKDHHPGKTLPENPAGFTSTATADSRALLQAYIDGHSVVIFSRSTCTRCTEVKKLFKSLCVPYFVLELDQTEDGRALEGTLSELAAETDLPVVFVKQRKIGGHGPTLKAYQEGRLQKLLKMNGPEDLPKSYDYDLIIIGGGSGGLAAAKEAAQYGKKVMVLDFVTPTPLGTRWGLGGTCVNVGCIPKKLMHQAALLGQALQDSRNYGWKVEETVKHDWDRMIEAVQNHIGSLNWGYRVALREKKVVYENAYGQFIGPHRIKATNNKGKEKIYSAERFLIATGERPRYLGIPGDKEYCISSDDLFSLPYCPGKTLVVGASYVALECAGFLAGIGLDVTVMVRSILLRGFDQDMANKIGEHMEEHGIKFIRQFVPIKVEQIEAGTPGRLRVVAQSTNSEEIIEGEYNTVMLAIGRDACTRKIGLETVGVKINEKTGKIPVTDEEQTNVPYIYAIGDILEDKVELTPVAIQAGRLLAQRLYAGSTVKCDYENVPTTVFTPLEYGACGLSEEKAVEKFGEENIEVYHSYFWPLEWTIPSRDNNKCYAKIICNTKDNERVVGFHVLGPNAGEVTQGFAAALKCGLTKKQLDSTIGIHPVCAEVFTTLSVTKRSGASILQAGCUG
UniProt Q9NNW7, 37-524 limits assumed: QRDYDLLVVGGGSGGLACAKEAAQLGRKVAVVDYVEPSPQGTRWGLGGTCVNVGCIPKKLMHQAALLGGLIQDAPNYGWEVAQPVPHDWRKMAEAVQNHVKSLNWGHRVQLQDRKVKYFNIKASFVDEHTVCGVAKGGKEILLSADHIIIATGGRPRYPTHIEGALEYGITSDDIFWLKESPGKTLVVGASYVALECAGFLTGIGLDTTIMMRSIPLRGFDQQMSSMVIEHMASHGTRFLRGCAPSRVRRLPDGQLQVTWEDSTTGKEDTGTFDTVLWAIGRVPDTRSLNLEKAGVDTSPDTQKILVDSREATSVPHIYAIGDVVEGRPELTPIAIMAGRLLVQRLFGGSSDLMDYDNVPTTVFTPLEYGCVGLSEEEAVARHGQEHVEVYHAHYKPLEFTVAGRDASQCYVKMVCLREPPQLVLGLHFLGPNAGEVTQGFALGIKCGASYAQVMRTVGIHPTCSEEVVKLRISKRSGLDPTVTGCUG
UniProt Q86VQ6, whole entry: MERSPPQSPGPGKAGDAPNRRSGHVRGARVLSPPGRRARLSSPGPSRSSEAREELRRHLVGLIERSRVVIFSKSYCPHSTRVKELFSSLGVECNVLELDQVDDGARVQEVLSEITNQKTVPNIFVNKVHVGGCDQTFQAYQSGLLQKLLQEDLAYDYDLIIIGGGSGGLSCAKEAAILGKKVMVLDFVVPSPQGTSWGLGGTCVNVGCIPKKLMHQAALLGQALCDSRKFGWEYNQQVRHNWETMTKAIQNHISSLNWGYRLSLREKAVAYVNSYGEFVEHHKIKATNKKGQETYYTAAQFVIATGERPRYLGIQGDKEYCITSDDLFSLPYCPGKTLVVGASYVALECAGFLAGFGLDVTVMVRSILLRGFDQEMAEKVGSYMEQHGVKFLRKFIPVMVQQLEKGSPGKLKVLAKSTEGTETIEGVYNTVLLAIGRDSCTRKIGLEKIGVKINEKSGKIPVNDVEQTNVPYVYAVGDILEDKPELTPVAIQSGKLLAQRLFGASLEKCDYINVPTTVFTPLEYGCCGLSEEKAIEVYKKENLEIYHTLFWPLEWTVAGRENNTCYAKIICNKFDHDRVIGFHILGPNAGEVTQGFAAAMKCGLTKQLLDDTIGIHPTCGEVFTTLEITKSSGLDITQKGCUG
UniProt O89049, with tags, fused parts or gaps U498C: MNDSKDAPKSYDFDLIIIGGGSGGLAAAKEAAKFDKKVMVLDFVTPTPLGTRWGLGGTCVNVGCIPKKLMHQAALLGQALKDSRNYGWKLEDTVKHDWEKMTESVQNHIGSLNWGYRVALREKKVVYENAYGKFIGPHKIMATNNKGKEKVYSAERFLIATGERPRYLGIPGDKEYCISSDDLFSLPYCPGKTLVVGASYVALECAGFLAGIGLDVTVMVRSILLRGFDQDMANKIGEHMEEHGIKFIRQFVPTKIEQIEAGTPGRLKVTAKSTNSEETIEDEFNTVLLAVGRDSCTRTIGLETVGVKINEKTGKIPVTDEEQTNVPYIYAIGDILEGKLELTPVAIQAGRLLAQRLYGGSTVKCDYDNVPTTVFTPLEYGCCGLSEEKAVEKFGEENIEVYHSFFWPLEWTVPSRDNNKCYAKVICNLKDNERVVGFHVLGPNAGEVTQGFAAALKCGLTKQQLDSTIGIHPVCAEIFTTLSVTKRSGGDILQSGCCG
UniProt P70619: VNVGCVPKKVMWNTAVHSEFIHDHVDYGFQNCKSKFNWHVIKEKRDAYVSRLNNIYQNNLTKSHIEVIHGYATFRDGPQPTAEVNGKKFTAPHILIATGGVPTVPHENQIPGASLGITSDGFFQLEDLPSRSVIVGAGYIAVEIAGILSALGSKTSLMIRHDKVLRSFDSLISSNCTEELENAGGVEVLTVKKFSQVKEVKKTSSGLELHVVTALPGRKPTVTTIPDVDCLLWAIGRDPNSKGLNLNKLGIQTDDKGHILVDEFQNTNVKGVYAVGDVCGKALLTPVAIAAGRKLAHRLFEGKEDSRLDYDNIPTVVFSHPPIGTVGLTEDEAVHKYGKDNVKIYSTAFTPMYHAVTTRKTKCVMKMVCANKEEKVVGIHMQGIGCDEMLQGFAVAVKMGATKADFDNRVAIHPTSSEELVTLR

In one test the test system is HepG2. As to the kind of experiment: Cytotoxicity against human HepG2 cells assessed as inhibition of proliferation after 48 hrs by MTT assay.
Test [1] deals with HL-60. The test can be described thus: Cytotoxicity against human HL60 cells assessed as inhibition of proliferation after 48 hrs by MTT assay.
Test [2] can be described thus: Cytotoxicity against human […] cells assessed as inhibition of proliferation after 48 hrs by MTT assay.
Test [3] relates to HL-60. As to the kind of experiment: Cytotoxicity against human HL60 cells assessed as inhibition of proliferation after 72 hrs by MTT assay.
Another test relates to HeLa. The test can be described thus: Cytotoxicity against human HeLa cells assessed as inhibition of proliferation after 48 hrs by MTT assay.
For another test, the target named is Thioredoxin reductase (Homo sapiens, UniProt Q16881+Q9NNW7+Q86VQ6). The test can be described thus: Inhibition of human TrxR activity in human HeLa cell lysate after 12 hrs by insulin reduction assay.
Test [4] can be described thus: Cytotoxicity against human L02 cells assessed as cell viability after 48 hrs by MTT assay.
Test [5] concerns the target Thioredoxin reductase 1, cytoplasmic (Rattus norvegicus, UniProt O89049). As to the kind of experiment: Inhibition of NADPH-reduced rat recombinant TrxR1 U498C mutant after 30 mins by DTNB assay.
In a further test the test system is HEK-293T. As to the kind of experiment: Cytotoxicity against human HEK293T cells assessed as cell viability after 48 hrs by MTT assay.
For the next test, the target named is Glutathione reductase (Rattus norvegicus, UniProt P70619). As to the kind of experiment: Inhibition of rat recombinant glutathione reductase after 30 mins by DTNB assay.
Test [6] can be described thus: Inhibition of NADPH-reduced rat recombinant wild type TrxR after 30 mins by DTNB assay.

Regarding `CC(=O)Nc1ccc([As]2SCCCS2)cc1`, the half-maximal inhibitory concentration (IC50) in the test with HepG2 is over 10 µM; in the test with HL-60 [1], 0.8 µM; in test [2], 3.4 µM; in the test on HL-60 [3] it was 0.7 µM; in the test on HeLa, 4.6 µM.

As to `Nc1ccc([As]=O)cc1` (configuration not stated), the concentration for half-maximal inhibition (IC50) in the test with HepG2 is over 10 µM; in the test on HL-60 [1] it was 6.2 µM; in [2], 9.4 µM; in the test with HL-60 [3], 5.1 µM; in the test on HeLa it was 7.7 µM; on Thioredoxin reductase, 4 µM.

For `CC(=O)Nc1ccc([As]2SCCS2)cc1`, the 50% inhibitory concentration (IC50) with HepG2 was over 10 µM; in the test with HL-60 [1], 2.5 µM; in test [2], 9 µM; in the test with HL-60 [3], 2 µM; in the test with HeLa, over 10 µM.

Consider `Nc1ccc([As]2SCCS2)cc1`, for which the concentration for half-maximal inhibition (IC50) in the test on HepG2 is over 10 µM; in the test on HL-60 [1], 2.5 µM; in [2], 9.9 µM; with HL-60 [3], 1.7 µM; in the test with HeLa, 6.1 µM.

Turning to `Nc1ccc([As]2SCCCS2)cc1`, the 50% inhibitory concentration (IC50) in [4] was 10.2 µM; in the test on HepG2, over 10 µM; in [5] it was over 10 µM; with HL-60 [1], 0.7 µM; in the test on HEK-293T, 2.7 µM; at Glutathione reductase, over 10 µM. Besides, the IC50 in test [2] was found to be 2.8 µM; in the test with HL-60 [3] it was 0.6 µM; in test [6] it was 0.033 µM; with HeLa, 3.4 µM; on Thioredoxin reductase, 1.4 µM.
